{"source": "patent US20150320892A1", "about": "“IMAGING FIBROSIS” (GE Healthcare Limited, priority 2012, published 2015)", "key": {"[1]": {"test": "Biodistribution of 99mTc-Compound 2 in naive rats", "assay_type": "in vivo, Male Sprague-Dawley rats", "conditions": "rat, i.v., mean±SD, n=3", "method": "Male Sprague-Dawley rats (231±10 g) were group housed in batches of four, with ad libitum access to food and water. Animals (n=12) were injected with ^99mTc-Compound 2 (0.3 mL, 4-5MBq/animal), as an intravenous bolus via the tail vein. At various times post injection (2, 30, 60 and 120 minutes) animals were euthanised (n=3 per timepoint), dissected.\nData above are presented as % injected dose (mean±SD; n=3 animals per timepoint)."}, "[2]": {"conditions": "10% ethanol/50 mM phosphate buffer solution at 20 MBq/mL, over 3 hr"}}, "data": [{"substance": "^99mTc-labelled (R)-(1-(2-(6-(4-((2-aminoethyl)amino)-3-(((2-aminoethyl)amino)methyl)butanamido)hexanamido)acetyl)pyrrolidin-2-yl)boronic acid [^99mTc-Compound 2]", "values": [{"measurement": "% injected dose, Bladder/Urine", "setting": "[1]; 2 minutes post injection", "result": "0.10 ± 0.01", "unit": "% injected dose"}, {"measurement": "% injected dose, Blood", "setting": "[1]; 2 minutes post injection", "result": 13.62, "unit": "% injected dose"}, {"measurement": "% injected dose, Bone", "setting": "[1]; 2 minutes post injection", "result": "7.49 ± 0.79", "unit": "% injected dose"}, {"measurement": "% injected dose, Kidney", "setting": "[1]; 2 minutes post injection", "result": "9.32 ± 0.39", "unit": "% injected dose"}, {"measurement": "% injected dose, Liver", "setting": "[1]; 2 minutes post injection", "result": "2.28 ± 0.34", "unit": "% injected dose"}, {"measurement": "% injected dose, Plasma", "setting": "[1]; 2 minutes post injection", "result": "1.00 ± 0.14", "unit": "% injected dose"}, {"measurement": "% injected dose, Bladder/Urine", "setting": "[1]; 30 minutes post injection", "result": "18.56 ± 0.39", "unit": "% injected dose"}, {"measurement": "% injected dose, Blood", "setting": "[1]; 30 minutes post injection", "result": "4.87 ± 0.54", "unit": "% injected dose"}, {"measurement": "% injected dose, Bone", "setting": "[1]; 30 minutes post injection", "result": "5.03 ± 0.14", "unit": "% injected dose"}, {"measurement": "% injected dose, Kidney", "setting": "[1]; 30 minutes post injection", "result": "2.51 ± 0.27", "unit": "% injected dose"}, {"measurement": "% injected dose, Liver", "setting": "[1]; 30 minutes post injection", "result": "1.06 ± 0.12", "unit": "% injected dose"}, {"measurement": "% injected dose, Plasma", "setting": "[1]; 30 minutes post injection", "result": "0.39 ± 0.03", "unit": "% injected dose"}, {"measurement": "% injected dose, Bladder/Urine", "setting": "[1]; 60 minutes post injection", "result": "26.45 ± 1.97", "unit": "% injected dose"}, {"measurement": "% injected dose, Blood", "setting": "[1]; 60 minutes post injection", "result": "2.88 ± 0.07", "unit": "% injected dose"}, {"measurement": "% injected dose, Bone", "setting": "[1]; 60 minutes post injection", "result": "3.57 ± 0.08", "unit": "% injected dose"}, {"measurement": "% injected dose, Kidney", "setting": "[1]; 60 minutes post injection", "result": "2.49 ± 0.13", "unit": "% injected dose"}, {"measurement": "% injected dose, Liver", "setting": "[1]; 60 minutes post injection", "result": "0.79 ± 0.02", "unit": "% injected dose"}, {"measurement": "% injected dose, Plasma", "setting": "[1]; 60 minutes post injection", "result": "0.23 ± 0.01", "unit": "% injected dose"}, {"measurement": "% injected dose, Bladder/Urine", "setting": "[1]; 120 minutes post injection", "result": "33.11 ± 1.86", "unit": "% injected dose"}, {"measurement": "% injected dose, Blood", "setting": "[1]; 120 minutes post injection", "result": "1.80 ± 0.03", "unit": "% injected dose"}, {"measurement": "% injected dose, Bone", "setting": "[1]; 120 minutes post injection", "result": "2.82 ± 0.07", "unit": "% injected dose"}, {"measurement": "% injected dose, Kidney", "setting": "[1]; 120 minutes post injection", "result": "2.10 ± 0.33", "unit": "% injected dose"}, {"measurement": "% injected dose, Liver", "setting": "[1]; 120 minutes post injection", "result": "0.63 ± 0.05", "unit": "% injected dose"}, {"measurement": "% injected dose, Plasma", "setting": "[1]; 120 minutes post injection", "result": "0.13 ± 0.02", "unit": "% injected dose"}, {"measurement": "stability after formulation", "setting": "[2]", "result": "very stable"}]}]}
